The target in this test is DOT1L (Homo sapiens, UniProt Q8TEK3).

The chains behind the UniProt entries cited, without tags or fusion partners. Where a name states a change or a piece, a line headed by the entry shows the natural chain unless it says otherwise.
UniProt Q8TEK3: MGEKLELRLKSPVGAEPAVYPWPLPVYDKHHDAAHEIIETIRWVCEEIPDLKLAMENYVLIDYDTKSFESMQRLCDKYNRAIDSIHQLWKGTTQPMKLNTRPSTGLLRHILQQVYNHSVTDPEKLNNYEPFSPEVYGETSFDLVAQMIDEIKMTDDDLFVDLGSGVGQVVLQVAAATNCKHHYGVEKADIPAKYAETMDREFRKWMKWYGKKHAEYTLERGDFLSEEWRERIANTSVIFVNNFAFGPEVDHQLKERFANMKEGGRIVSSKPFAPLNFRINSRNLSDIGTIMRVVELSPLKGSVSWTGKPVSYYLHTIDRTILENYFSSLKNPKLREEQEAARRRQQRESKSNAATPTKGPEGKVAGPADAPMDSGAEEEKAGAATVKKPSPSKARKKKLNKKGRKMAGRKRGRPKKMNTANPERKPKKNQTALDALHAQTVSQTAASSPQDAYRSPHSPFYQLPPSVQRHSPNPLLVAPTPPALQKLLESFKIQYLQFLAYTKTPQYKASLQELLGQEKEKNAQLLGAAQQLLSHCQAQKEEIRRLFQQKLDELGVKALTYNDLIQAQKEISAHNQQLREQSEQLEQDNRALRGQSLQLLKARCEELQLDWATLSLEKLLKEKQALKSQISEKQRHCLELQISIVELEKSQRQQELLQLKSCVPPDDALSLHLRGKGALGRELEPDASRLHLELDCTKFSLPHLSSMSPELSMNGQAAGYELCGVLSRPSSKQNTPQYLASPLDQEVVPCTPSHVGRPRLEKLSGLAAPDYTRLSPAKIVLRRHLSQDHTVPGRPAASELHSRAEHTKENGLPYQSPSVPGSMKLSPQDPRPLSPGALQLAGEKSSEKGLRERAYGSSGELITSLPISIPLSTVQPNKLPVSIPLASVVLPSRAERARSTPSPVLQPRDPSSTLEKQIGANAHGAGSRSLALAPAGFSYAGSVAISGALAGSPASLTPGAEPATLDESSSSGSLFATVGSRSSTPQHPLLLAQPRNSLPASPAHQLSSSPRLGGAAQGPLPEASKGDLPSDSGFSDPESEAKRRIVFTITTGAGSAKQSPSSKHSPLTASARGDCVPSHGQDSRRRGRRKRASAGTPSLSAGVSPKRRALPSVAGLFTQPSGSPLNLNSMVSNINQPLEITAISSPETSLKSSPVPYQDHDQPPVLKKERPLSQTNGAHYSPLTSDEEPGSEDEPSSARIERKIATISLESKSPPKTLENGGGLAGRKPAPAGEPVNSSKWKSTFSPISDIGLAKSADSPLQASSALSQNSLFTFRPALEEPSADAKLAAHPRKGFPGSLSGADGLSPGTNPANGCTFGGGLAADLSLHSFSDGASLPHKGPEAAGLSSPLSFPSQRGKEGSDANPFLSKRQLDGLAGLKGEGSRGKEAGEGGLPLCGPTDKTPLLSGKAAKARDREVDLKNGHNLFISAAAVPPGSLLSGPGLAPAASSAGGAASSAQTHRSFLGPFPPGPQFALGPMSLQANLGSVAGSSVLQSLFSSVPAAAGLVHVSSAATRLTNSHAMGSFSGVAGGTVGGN

Consider `CC(C)N(CCCNC(=O)Nc1ccc(C(C)(C)C)cc1)C[C@H]1O[C@@H](n2cc(Br)c3c(N)ncnc32)[C@H](O)[C@@H]1O` [SGC0946], for which the “competition chemoproteomics (LFQ MS) in Jurkat cell lysate” value is reported as “Chemoproteomic analysis of the DOT1L inhibitor SGC0946 in Jurkat cell lysates indicated that the probe is highly specific for DOT1L”.

These data come from paper PMC6318333, “A chemical biology toolbox to study protein methyltransferases and epigenetic signaling” (Nature Communications, 2019).
